# Reference: patent publication US20240360179A1, “STAPLED PEPTIDES AND METHODS THEREOF” (FOG PHARMACEUTICALS, INC., priority 2021, published 2024)
# The chains behind the UniProt entries cited, without tags or fusion partners.
# UniProt P35222, whole entry: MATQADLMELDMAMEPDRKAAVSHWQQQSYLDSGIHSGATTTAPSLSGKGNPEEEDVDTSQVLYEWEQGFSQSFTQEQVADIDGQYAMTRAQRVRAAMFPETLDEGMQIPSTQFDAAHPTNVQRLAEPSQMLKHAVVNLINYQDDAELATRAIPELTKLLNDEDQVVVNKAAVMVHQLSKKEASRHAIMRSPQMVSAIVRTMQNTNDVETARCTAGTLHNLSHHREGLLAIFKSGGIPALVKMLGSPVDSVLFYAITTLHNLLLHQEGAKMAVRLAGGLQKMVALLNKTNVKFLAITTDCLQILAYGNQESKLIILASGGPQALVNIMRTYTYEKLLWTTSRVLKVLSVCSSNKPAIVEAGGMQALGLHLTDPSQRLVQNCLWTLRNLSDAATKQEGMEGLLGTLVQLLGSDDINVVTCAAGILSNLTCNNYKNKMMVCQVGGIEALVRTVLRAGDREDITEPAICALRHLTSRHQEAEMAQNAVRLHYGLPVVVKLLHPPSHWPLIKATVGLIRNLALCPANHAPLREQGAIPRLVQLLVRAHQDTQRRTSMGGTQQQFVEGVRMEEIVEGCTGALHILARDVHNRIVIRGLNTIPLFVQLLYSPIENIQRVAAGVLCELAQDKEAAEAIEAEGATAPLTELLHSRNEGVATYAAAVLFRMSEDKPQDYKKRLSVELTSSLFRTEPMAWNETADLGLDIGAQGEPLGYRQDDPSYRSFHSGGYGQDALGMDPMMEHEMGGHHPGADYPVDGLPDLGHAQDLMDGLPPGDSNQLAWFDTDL
# Target: T1, full-length B-Catenin (Uniprot ID P35222) (Homo sapiens, UniProt P35222)
# T1 construct: 10 nM full-length B-Catenin (Uniprot ID P35222)
# Assay type: binding
# Details: competition fluorescence polarization; read-out: beta-Catenin FP IC50
row,Substance,IC50
1,Ac-PL3-Asp-Ile-B5-Asp-3COOHF-GlnR*3-Ala-Phe-Ala-PyrS2-Phe-34ClF-GlnMePDA*3-NH2 [I-1803],0.2 to 0.75 µM
2,Ac-PL3-Asp-Ile-B5-Asp-3COOHF-GlnR*3-Ala-Phe-Ala-PyrS2-Phe-34ClF-GlnT4CyMe*3-NH2 [I-1811],0.05 to 0.2 µM
3,Ac-PL3-Asp-Ile-B5-Asp-3COOHF-GlnR*3-Ala-Phe-Leu-PyrS2-Phe-34ClF-GlnMePDA*3-NH2 [I-1802],0.05 to 0.2 µM
4,Ac-PL3-Asp-Ile-B5-Asp-3COOHF-GlnR*3-Ala-Phe-Val-PyrS2-Phe-34ClF-GlnMePDA*3-NH2 [I-1804],0.2 to 0.75 µM
5,Ac-PL3-Asp-Ile-B5-Asp-3COOHF-Leu-Ala-Phe-Lys*3-PyrS2-3Thi-BztA-GlnR*3-Ala-NH2 [I-972],< 0.05 µM
6,Ac-PL3-Asp-Ile-B5-Asp-3COOHF-Phe-Ala-Phe-Lys*3-PyrS2-3Thi-34MeF-GlnR*3-Ala-NH2 [I-1101],< 0.05 µM
7,Ac-PL3-Asp-Ile-B5-Asp-3COOHF-Phe-Ala-Phe-Lys*3-PyrS2-3Thi-34MeF-GlnR*3-NH2 [I-1102],< 0.05 µM
8,Ac-PL3-Asp-Ile-B5-Asp-3COOHF-Phe-Ala-Phe-Lys*3-PyrS2-Phe-34MeF-GlnR*3-Ala-NH2 [I-1106],< 0.05 µM
9,Ac-PL3-Asp-Ile-B5-Asp-3COOHF-Phe-Ala-Phe-Lys*3-PyrS2-Phe-34MeF-GlnR*3-NH2 [I-1107],< 0.05 µM
10,Ac-PL3-Asp-Ile-B5-Asp-3COOHF-Phe-Ala-Phe-TriAzLys*3-PyrS2-3Thi-34ClF-sAla*3-Ala-NH2 [I-1091],< 0.05 µM
11,Ac-PL3-Asp-Ile-B5-Asp-3COOHF-Phe-Ala-Phe-TriAzLys*3-PyrS2-3Thi-34ClF-sAla*3-NH2 [I-1090],< 0.05 µM
12,Ac-PL3-Asp-Ile-B5-Asp-3COOHF-Phe-Ala-Phe-TriAzLys*3-PyrS2-Phe-34ClF-sAla*3-Ala-NH2 [I-1097],< 0.05 µM
13,Ac-PL3-Asp-Ile-B5-Asp-3COOHF-Phe-Ala-Phe-TriAzLys*3-PyrS2-Phe-34ClF-sAla*3-NH2 [I-1096],< 0.05 µM
14,Ac-PL3-Asp-Ile-B5-Asp-3COOHF-[isovaleryl]Acp-Ala-Phe-TriAzLys*3-PyrS2-Phe-34ClF-sAla*3-NH2 [I-1241],< 0.05 µM
15,Ac-PL3-Asp-Ile-B5-Asp-3COOHF-nLeu-Ala-Phe-Lys*3-PyrS2-3Thi-BztA-GlnR*3-Ala-NH2 [I-973],< 0.05 µM
16,Ac-PL3-Asp-Leu-B5-Asp-3COOHF-Aib-Ala-Phe-Lys*3-PyrS2-2MeF-34ClF-GlnR*3-NH2 [I-1512],0.2 to 0.75 µM
17,Ac-PL3-Asp-Leu-B5-Asp-3COOHF-Aib-Ala-Phe-Lys*3-PyrS2-5ClW-34ClF-GlnR*3-Ala-NH2 [I-1910],< 0.05 µM
18,Ac-PL3-Asp-Leu-B5-Asp-3COOHF-Aib-Ala-Phe-Lys*3-PyrS2-5ClW-BztA-GlnR*3-Ala-NH2 [I-1915],0.75 to 1 µM
19,Ac-PL3-Asp-Leu-B5-Asp-3COOHF-Aib-Ala-Phe-Lys*3-PyrS2-6ClW-34ClF-GlnR*3-Ala-NH2 [I-1911],0.2 to 0.75 µM
20,Ac-PL3-Asp-Leu-B5-Asp-3COOHF-Aib-Ala-Phe-Lys*3-PyrS2-6ClW-BztA-GlnR*3-Ala-NH2 [I-1916],0.05 to 0.2 µM
21,Ac-PL3-Asp-Leu-B5-Asp-3COOHF-Aib-Ala-Phe-Lys*3-PyrS2-BztA-34ClF-GlnR*3-Ala-NH2 [I-1909],< 0.05 µM
22,Ac-PL3-Asp-Leu-B5-Asp-3COOHF-Aib-Ala-Phe-Lys*3-PyrS2-BztA-BztA-GlnR*3-Ala-NH2 [I-1914],< 0.05 µM

row,Substance,IC50
1,Ac-PL3-Asp-Leu-B5-Asp-3COOHF-Aib-Ala-Phe-Lys*3-PyrS2-Phe-34ClF-GlnR*3-Ala-NH2 [I-1907],< 0.05 µM
2,Ac-PL3-Asp-Leu-B5-Asp-3COOHF-Aib-Ala-Phe-Lys*3-PyrS2-Phe-BztA-GlnR*3-Ala-NH2 [I-1912],< 0.05 µM
3,Ac-PL3-Asp-Leu-B5-Asp-3COOHF-Aib-Ala-Phe-Lys*3-PyrS2-Trp-34ClF-GlnR*3-Ala-NH2 [I-1908],< 0.05 µM
4,Ac-PL3-Asp-Leu-B5-Asp-3COOHF-Aib-Ala-Phe-Lys*3-PyrS2-Trp-BztA-GlnR*3-Ala-NH2 [I-1913],0.05 to 0.2 µM
5,Ac-PL3-Asp-Leu-B5-Asp-3COOHF-Ala-Ala-Phe-Lys*3-PyrS1-Phe-34ClF-GlnR*3-NH2 [I-1700],< 0.05 µM
6,Ac-PL3-Asp-Leu-B5-Asp-3COOHF-Ala-Ala-Phe-Lys*3-PyrS2-2MeF-34ClF-GlnR*3-NH2 [I-1513],0.2 to 0.75 µM
7,Ac-PL3-Asp-Leu-B5-Asp-3COOHF-Ala-Ala-Phe-Lys*3-PyrS2-Phe-34ClF-GlnR*3-NH2 [I-1699],< 0.05 µM
8,Ac-PL3-Asp-Leu-B5-Asp-3COOHF-CyLeu-Ala-Phe-Lys*3-PyrS2-2MeF-34ClF-GlnR*3-NH2 [I-1514],0.2 to 0.75 µM
9,Ac-PL3-Asp-Leu-B5-Asp-3COOHF-Gln3ACPip*3-Ala-Phe-Ala-PyrS2-Phe-34ClF-GlnR*3-NH2 [I-1900],0.05 to 0.2 µM
10,Ac-PL3-Asp-Leu-B5-Asp-3COOHF-Gln4Pippip*3-Ala-Phe-Ala-PyrS2-Phe-34ClF-GlnR*3-NH2 [I-1922],< 0.05 µM
11,Ac-PL3-Asp-Leu-B5-Asp-3COOHF-Gln4Pippip*3-Ala-Phe-Leu-PyrS2-Phe-34ClF-GlnR*3-NH2 [I-1921],< 0.05 µM
12,Ac-PL3-Asp-Leu-B5-Asp-3COOHF-GlnC4CyMe*3-Ala-Phe-Ala-PyrS2-Phe-34ClF-GlnR*3-NH2 [I-1897],< 0.05 µM
13,Ac-PL3-Asp-Leu-B5-Asp-3COOHF-GlnC4CyMe*3-Ala-Phe-Leu-PyrS2-Phe-34ClF-GlnR*3-NH2 [I-1896],< 0.05 µM
14,Ac-PL3-Asp-Leu-B5-Asp-3COOHF-GlnMeBDA*3-Ala-Phe-Ala-PyrS2-Phe-34ClF-GlnR*3-NH2 [I-1825],< 0.05 µM
15,Ac-PL3-Asp-Leu-B5-Asp-3COOHF-GlnMeBDA*3-Ala-Phe-Leu-PyrS2-Phe-34ClF-GlnR*3-NH2 [I-1824],< 0.05 µM
16,Ac-PL3-Asp-Leu-B5-Asp-3COOHF-GlnMeBDA*3-Ala-Phe-Val-PyrS2-Phe-34ClF-GlnR*3-NH2 [I-1826],< 0.05 µM
17,Ac-PL3-Asp-Leu-B5-Asp-3COOHF-GlnPip4AE*3-Ala-Phe-Ala-PyrS2-Phe-34ClF-GlnR*3-NH2 [I-1923],< 0.05 µM
18,Ac-PL3-Asp-Leu-B5-Asp-3COOHF-GlnPipAz*3-Ala-Phe-Ala-PyrS2-Phe-34ClF-GlnR*3-NH2 [I-1904],< 0.05 µM
19,Ac-PL3-Asp-Leu-B5-Asp-3COOHF-GlnPipAz*3-Ala-Phe-Leu-PyrS2-Phe-34ClF-GlnR*3-NH2 [I-1903],< 0.05 µM
20,Ac-PL3-Asp-Leu-B5-Asp-3COOHF-GlnR*3-Ala-Phe-Ala-PyrS2-Phe-34ClF-Gln3ACPip*3-NH2 [I-1902],0.05 to 0.2 µM
21,Ac-PL3-Asp-Leu-B5-Asp-3COOHF-GlnR*3-Ala-Phe-Ala-PyrS2-Phe-34ClF-Gln5DA*3-NH2 [I-1831],< 0.05 µM
22,Ac-PL3-Asp-Leu-B5-Asp-3COOHF-GlnR*3-Ala-Phe-Ala-PyrS2-Phe-34ClF-Gln6DA*3-NH2 [I-1834],< 0.05 µM

row,Substance,IC50
1,Ac-PL3-Asp-Leu-B5-Asp-3COOHF-GlnR*3-Ala-Phe-Ala-PyrS2-Phe-34ClF-GlnC4CyMe*3-NH2 [I-1899],< 0.05 µM
2,Ac-PL3-Asp-Leu-B5-Asp-3COOHF-GlnR*3-Ala-Phe-Ala-PyrS2-Phe-34ClF-GlnMeBDA*3-NH2 [I-1828],< 0.05 µM
3,Ac-PL3-Asp-Leu-B5-Asp-3COOHF-GlnR*3-Ala-Phe-Ala-PyrS2-Phe-34ClF-GlnPip4AE*3-NH2 [I-1926],< 0.05 µM
4,Ac-PL3-Asp-Leu-B5-Asp-3COOHF-GlnR*3-Ala-Phe-Ala-PyrS2-Phe-34ClF-GlnPipAz*3-NH2 [I-1906],< 0.05 µM
5,Ac-PL3-Asp-Leu-B5-Asp-3COOHF-GlnR*3-Ala-Phe-Ala-PyrS2-Phe-34ClF-GlnT4CyMe*3-NH2 [I-1839],< 0.05 µM
6,Ac-PL3-Asp-Leu-B5-Asp-3COOHF-GlnR*3-Ala-Phe-Leu-PyrS2-Phe-34ClF-Gln3ACPip*3-NH2 [I-1901],0.05 to 0.2 µM
7,Ac-PL3-Asp-Leu-B5-Asp-3COOHF-GlnR*3-Ala-Phe-Leu-PyrS2-Phe-34ClF-Gln5DA*3-NH2 [I-1830],< 0.05 µM
8,Ac-PL3-Asp-Leu-B5-Asp-3COOHF-GlnR*3-Ala-Phe-Leu-PyrS2-Phe-34ClF-Gln6DA*3-NH2 [I-1833],< 0.05 µM
9,Ac-PL3-Asp-Leu-B5-Asp-3COOHF-GlnR*3-Ala-Phe-Leu-PyrS2-Phe-34ClF-GlnC4CyMe*3-NH2 [I-1898],< 0.05 µM
10,Ac-PL3-Asp-Leu-B5-Asp-3COOHF-GlnR*3-Ala-Phe-Leu-PyrS2-Phe-34ClF-GlnMeBDA*3-NH2 [I-1827],< 0.05 µM
11,Ac-PL3-Asp-Leu-B5-Asp-3COOHF-GlnR*3-Ala-Phe-Leu-PyrS2-Phe-34ClF-GlnPip4AE*3-NH2 [I-1924],< 0.05 µM
12,Ac-PL3-Asp-Leu-B5-Asp-3COOHF-GlnR*3-Ala-Phe-Leu-PyrS2-Phe-34ClF-GlnPipAz*3-NH2 [I-1905],< 0.05 µM
13,Ac-PL3-Asp-Leu-B5-Asp-3COOHF-GlnR*3-Ala-Phe-Leu-PyrS2-Phe-34ClF-GlnT4CyMe*3-NH2 [I-1838],< 0.05 µM
14,Ac-PL3-Asp-Leu-B5-Asp-3COOHF-GlnR*3-Ala-Phe-Val-PyrS2-Phe-34ClF-Gln5DA*3-NH2 [I-1832],< 0.05 µM
15,Ac-PL3-Asp-Leu-B5-Asp-3COOHF-GlnR*3-Ala-Phe-Val-PyrS2-Phe-34ClF-Gln6DA*3-NH2 [I-1835],< 0.05 µM
16,Ac-PL3-Asp-Leu-B5-Asp-3COOHF-GlnR*3-Ala-Phe-Val-PyrS2-Phe-34ClF-GlnMeBDA*3-NH2 [I-1829],< 0.05 µM
17,Ac-PL3-Asp-Leu-B5-Asp-3COOHF-GlnR*3-Ala-Phe-Val-PyrS2-Phe-34ClF-GlnPip4AE*3-NH2 [I-1925],< 0.05 µM
18,Ac-PL3-Asp-Leu-B5-Asp-3COOHF-GlnR*3-Ala-Phe-Val-PyrS2-Phe-34ClF-GlnT4CyMe*3-NH2 [I-1840],0.05 to 0.2 µM
19,Ac-PL3-Asp-Leu-B5-Asp-3COOHF-GlnT4CyMe*3-Ala-Phe-Leu-PyrS2-Phe-34ClF-GlnR*3-NH2 [I-1836],< 0.05 µM
20,Ac-PL3-Asp-Leu-B5-Asp-3COOHF-GlnT4CyMe*3-Ala-Phe-Val-PyrS2-Phe-34ClF-GlnR*3-NH2 [I-1837],0.05 to 0.2 µM

# Same assay, conditions: read-out: beta-Catenin FP IC50
row,Substance,IC50
1,Ac-PL3-Asp-Leu-B5-Asp-Asp-Ala-Ala-Phe-Lys*3-PyrS2-3Thi-BztA-GlnR*3-NH2 [I-4],< 0.05 µM
